This is an account of results in PMC6880876.

A word on the Kd: it is the free concentration of one partner at which half of the binding sites on the other are occupied at equilibrium, for simple one-to-one binding.

In the test the target is end-binding protein 3 (EB3), full-length, recombinant (UniProt Q9UPY8). Put plainly: ELISA.

For the substance “full-length tau V337M (0N4R) (natural protein)”, the Kd is 5.6 nM.
